# Patent US10301261B2, “Substituted indoles as modulators of ROR-gamma” (Vitae Pharmaceuticals, LLC, priority 2015, dated 2019)
# The chains behind the UniProt entries cited, without tags or fusion partners. Residues count along the entry.
# UniProt P51449, 269-508: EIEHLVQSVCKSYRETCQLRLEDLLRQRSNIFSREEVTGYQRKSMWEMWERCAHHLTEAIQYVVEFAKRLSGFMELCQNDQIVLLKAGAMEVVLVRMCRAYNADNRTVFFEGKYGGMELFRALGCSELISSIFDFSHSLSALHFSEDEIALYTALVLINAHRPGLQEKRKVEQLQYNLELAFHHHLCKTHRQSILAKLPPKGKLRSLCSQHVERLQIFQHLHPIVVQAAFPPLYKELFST
# Biological target: recombinant RORγ Ligand Binding Domain (LBD) protein (Homo sapiens (Human), UniProt P51449)
# Assay: Radio-Ligand RORγ Binding Assay (Assay 1)
# Conditions: radio-ligand 25-hydroxy [26,27-3H]-cholesterol competition
# Method: Radio-Ligand RORγ Binding Assay (Assay 1)
# Compounds described herein were tested for ability to bind to RORγ in a cell-free competition assay with commercially available radio-ligand (RL), 25-hydroxy [26,27-^3H]-cholesterol (PerkinElmer, Cat. # NET674250UC), for a ligand binding site on a recombinant RORγ Ligand Binding Domain (LBD) protein expressed as a 6×His-Glutathione-S-Transferase (GST) fusion. […] The plate was shaken at 700 rpm for 20 min and incubated for 10 min at rt, after which 40 μL of poly-Lys YSi SPA beads (PerkinElmer, Cat. # RPNQ0010) were added to achieve 50 μg of the beads per well. The plate was incubated on an orbital shaker for 20 min and then for 10 min without agitation at rt. SPA signal for tritium beta radiation was registered on PerkinElmer Microbeta plate reader. […] The percent inhibition vs. concentration data were fit into a four-parameter model, and IC50 values were calculated from the fit as the concentrations corresponding to the inflection points on the dose-response curves. […]
row,SMILES,Ki
1,"CCS(=O)(=O)c1ccc(CNC(=O)c2ccc3c(c2)nc(C(O)[C@H]2CC[C@H](C(F)(F)F)CC2)n3C2CC2)cc1 (single isomer, unassigned) [BE-63.2, 1-cyclopropyl-N-(4-(ethylsulfonyl)benzyl)-2-(hydroxy(trans-4-(trifluoromethyl)cyclohexyl)methyl)-1H-benzo[d]imidazole-5-carboxamide]",100 to 1000 nM
2,"CCS(=O)(=O)c1ccc([C@H](CO)NC(=O)c2ccc3c(c2)nc(C(=O)N2CCC(C(F)(F)F)CC2)n3C2CC2)cc1 [BE-62, (R)-1-cyclopropyl-N-(1-(4-(ethylsulfonyl)phenyl)-2-hydroxyethyl)-2-(4-(trifluoromethyl)piperidine-1-carbonyl)-1H-benzo[d]imidazole-5-carboxamide]",100 to 1000 nM
3,"CCS(=O)(=O)c1ccc(CNC(=O)c2ccc3c(c2)nc(C(O)[C@H]2CC[C@H](C(F)(F)F)CC2)n3C2CC2)cc1 (single isomer, unassigned) [BE-63.1, 1-cyclopropyl-N-(4-(ethylsulfonyl)benzyl)-2-(hydroxy(trans-4-(trifluoromethyl)cyclohexyl)methyl)-1H-benzo[d]imidazole-5-carboxamide]",> 1000 nM
